Measured values from ChEMBL document CHEMBL1781881, “Adenosine-derived inhibitors of 78 kDa glucose regulated protein (Grp78) ATPase: insights into isoform selectivity” (J Med Chem, 2011).

Experiment: Inhibition of HSP70 by fluorescence polarization assay

Ki: 1850 nM
SMILES: CNc1nc2c(N)ncnc2n1[C@@H]1O[C@H](COCC(N)=O)[C@@H](O)[C@H]1O
